Experimental data published in patent EP2954896A1, “Small molecule inhibitors of the E3 Ligase Skp2 in depression and other diseases” (Max-Planck-Gesellschaft zur Förderung der Wissenschaften …, priority 2014, dated 2015).

Columns and labels:
[1] = test system: CA1 neuronal activity; test: Voltage-sensitive dye imaging (VSDI) of evoked CA1 neuronal activity in brain slices; parameters: species or system mice; details: bath application 10 µM
Method: Brain slices were obtained from 11-18 week-old male FKBP51+/+ and FKBP51-/- litter mates (Fig. 1) or from BL6 mice (Fig. 7). Preparation and staining of slices with the voltage-sensitive dye Di-4-ANEPPS as well as VSDI and data analysis were performed essentially as described (von Wolff et al. (2011) J. Psychiatr. Res. 45: 256-261; Refojo et al. (2011) Science 333: 1903-1907). Four acquisitions subsequently recorded at intervals of 5 s were averaged. Neuronal activity was evoked by square pulse electrical stimuli (200 µs pulse width) delivered via a custom-made monopolar tungsten electrode to the Schaffer collateral-commissural pathway. The circular ROI was placed into the CA1 stratum radiatum near the stimulation electrode. The ROI also covered a part of the adjacent CA1 stratum pyramidale (Fig. 1 B). The intensity of voltage stimulation was adjusted to produce FDSs with peak amplitudes of ~30% of the highest attainable value.
Irrespective of the question whether AD-induced increase of autophagic markers in all cases indicates enhanced protein turnover, autophagic pathways have been linked to synaptic function. […] Hippocampal CA3-CA1 synapses were electrically stimulated in brain slices from Fkbp51^+/+ and Fkbp51^-/- mice, and CA1 neuronal activity was monitored by means of voltagesensitive dye imaging (VSDI). […]

[2] = test system: autophagy markers; test: Autophagy markers in protein extracts of hippocampus and prefrontal cortex after acute antidepressant injection; format: in vivo; details: Fkbp51+/+ mice, 10 mgkg-1
Method: Western blot analysis was performed on eluates from ColPs or with protein extracts from cells or tissue. Protein extracts were obtained by lysing cells or tissue (prelysed as described in the paragraph before) in 62.5 mM Tris, 2% SDS and 10% sucrose, supplemented with protease (Sigma, P2714) and phosphatase (Roche, 04906837001) inhibitor cocktail. Samples were sonicated and heated at 95 °C for 5 min. Proteins were separated by SDS-PAGE and electro-transferred onto nitrocellulose membranes. Blots were placed in Tris-buffered saline, supplemented with 0.05% Tween (Sigma, P2287) and 5% non-fat milk for 1 h at room temperature and then incubated with primary antibody (diluted in TBS/0.05% Tween) overnight at 4 °C. […]
To evaluate molecular effects of ADs that may depend on FKBP51 and parallel the behavioral phenotype, autophagy markers were analyzed in protein extracts from the hippocampus and prefrontal cortex after PAR injection (10 mgkg^-1).

[3] = Chronic PAR treatment after chronic social defeat stress: behavioral tests (open field, social avoidance, forced swim); format: in vivo, mice; details: CSDS-exposed and control animals
Description: After cessation of the stressor, groups were subdivided into vehicle-treated and paroxetine-treated animals, resulting in 8 groups (n = 7-13 per group). The treatment phase lasted for three weeks. The behavioral tests took place during the last week of the paroxetine treatment. The CSDS paradigm lasted for 21 days. Briefly, the experimental mice were introduced into the home cage (45 cm x 25 cm) of a dominant resident mouse and defeated shortly after. When the defeat was achieved, the animals were separated by a wire mesh, preventing physical but allowing sensory contact for 24 h. Each day, stressed animals were defeated by another unfamiliar, dominant resident mouse in order to exclude a repeated encounter throughout the experiment. The daily defeat was performed between 11:00 and 16:00 h; varying starting times reduced the predictability of the stressor and therefore minimized a potential habituation effect. […] Both stress and control animals were handled daily during the stress procedure; body weight for all mice was assessed at the beginning of the experiment, after the cessation of the stress period, and on the day of killing. […] All tests were analyzed using an automated videotracking system (Anymaze 4.20, Stoelting, Wood Dale, IL). […] Time spent immobile (floating) and time spent struggling was scored by an experienced observer, blind to treatment or condition of the animals.

In the case of `Fc1ccc([C@@H]2CCNC[C@H]2COc2ccc3c(c2)OCO3)cc1` [PAR, paroxetine], the “ROI-extracted fast, depolarization-mediated imaging signals (FDSs)” value ([1]; slices from Fkbp51+/+ mice) is reported as “enhanced”, the “ROI-extracted fast, depolarization-mediated imaging signals (FDSs)” value ([1]; slices from Fkbp51-/- animals) is reported as “not observed” and the “ratio of LC3B-II/I” value [2] is reported as “increased”. The “social behavior (social interaction ratio), social avoidance test” value ([3]; 51 KO mice) was “but not in 51 KO mice” and the “social behavior (social interaction ratio), social avoidance test” value ([3]; wild-type mice) was “significantly enhanced social behavior”.
